ChEMBL document CHEMBL1129756, “Conformationally restricted TRH analogs: a probe for the pyroglutamate region” (J Med Chem, 1996)

What was measured:
[1] = target: T1, Thyrotropin-releasing hormone receptor (Mus musculus, UniProt P21761); assay: Binding affinity against TRH-R receptor in AtT-20 mouse pituitary tumor cells
T1 sequence (P21761 whole entry): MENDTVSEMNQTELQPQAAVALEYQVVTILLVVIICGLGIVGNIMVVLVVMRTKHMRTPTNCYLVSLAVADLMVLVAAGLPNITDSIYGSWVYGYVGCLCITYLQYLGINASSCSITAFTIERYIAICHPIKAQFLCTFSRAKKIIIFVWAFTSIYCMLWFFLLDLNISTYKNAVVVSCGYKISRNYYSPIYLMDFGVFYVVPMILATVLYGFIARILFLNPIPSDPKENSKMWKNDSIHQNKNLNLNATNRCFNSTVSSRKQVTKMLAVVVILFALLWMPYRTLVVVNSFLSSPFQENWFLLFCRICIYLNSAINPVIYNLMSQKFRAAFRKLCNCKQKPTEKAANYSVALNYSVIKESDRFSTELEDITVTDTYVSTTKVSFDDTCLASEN

[2] = target: T1, Thyrotropin-releasing hormone receptor; assay: Effective concentration required to activate TRH-R receptor in AtT-20 mouse pituitary tumor cells

## NC(=O)[C@@H]1CCCN1C(=O)[C@H](Cc1ccccc1)NC(=O)[C@@H]1CCC(=O)N1
[1]
  Ki: 1500 nM
[2]
  EC50: 110 nM
